Laboratory results: PubChem BioAssay (NCATS)
Only a part is listed here, and it is no random draw. Results filed as inconclusive are left out. Active and inactive are the calls of the source. Calls come from the whole dose curve; as a rule, active = well fitted curve in the direction sought with a large enough effect; inconclusive = small, poorly fitted or top-dose-only effect, or another doubt; inactive = no such curve, though single readings can be large; an effect the other way counts as inactive or inconclusive.

Tests used:
[1] = Quantitative High-Throughput drug screen in 47 multiple myeloma cell lines against the NCATS MIPE library collection: JIM1_ECACC cell viability assay (AID 1918964); conditions: JIM1 myeloma viability, CellTiter-Glo ATP luminescence, 48 h; at 45.8 µM (top of the series)
Outline: (§1)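 CellTiter-Glo luminescence (ATP) after 48 h compound exposure, 37C/5% CO2; 500 cells/well; MIPE 4.0 approved/investigational drugs pinned in; DMSO = 100%, media only = 0% viability.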

[2] = Quantitative High-Throughput drug screen in 47 multiple myeloma cell lines against the NCATS MIPE library collection: INA6_PLB cell viability assay (AID 1918965; note: nearly all actives have a fitted effect of over 55% in size); conditions: INA6 myeloma viability, CellTiter-Glo ATP luminescence, 48 h; at 45.8 µM (top of the series)
Text: (§2) PI: Beverly A. Mock Ph.D.
(§3) Laboratory of Cancer Biology and Genetics,
(§4) Center for Cancer Research, National Cancer Institute,
(§5) National Institute of Health, Bethesda, Maryland
(§6) Drug resistance and disease progression are common in multiple myeloma (MM) patients, underscoring the need for new therapeutic combinations. […] We hypothesized that effective combinations would reduce MYC expression and enhance p16 activity. […] These preclinical data identify potentially useful drug combinations for evaluation in drug-resistant MM and reveal potential mechanisms of combined drug sensitivity.
(§7) Described herein is the primary MIPE qHTS used to cherrypick compounds. Validated compounds were then further tested for potential synergistic activiy.
[1] […]
(§8) 5; Detector; 425V; Luminescence; Viewlux PerkinElmer. […]
(§9) 1. […] Briefly, the corresponding myeloma cell lines were screened in 1,536-well plates with 500 cells, 5-uL per well for inhibition of cell viability (assessed by measuring ATP levels with CellTiterGlo). […]
(§10) 5. Signal was measured as median relative luminescence units on a ViewLux (PerkinElmer) multiplate reader. […]

[3] = Quantitative High-Throughput drug screen in 47 multiple myeloma cell lines against the NCATS MIPE library collection: JJN3_DSMZ cell viability assay (AID 1918966; note: nearly all actives have a fitted effect of over 50% in size); conditions: JJN3 myeloma cells viability, CellTiter-Glo ATP, 48 h; at 45.8 µM (top of the series)
Outline: as §1

[4] = Quantitative High-Throughput drug screen in 47 multiple myeloma cell lines against the NCATS MIPE library collection: Karpas25_ECACC cell viability assay (AID 1918968; note: nearly all actives have a fitted effect of over 35% in size); conditions: Karpas25 myeloma viability, CellTiter-Glo ATP, 48 h; at 45.8 µM (top of the series)
Outline: as §1

[5] = Quantitative High-Throughput drug screen in 47 multiple myeloma cell lines against the NCATS MIPE library collection: KMS12PE_JCRB cell viability assay (AID 1918972); conditions: KMS12PE myeloma viability, CellTiter-Glo ATP, 48 h; at 45.8 µM (top of the series); note: nearly all actives have a fitted effect of over 30% in size
Outline: as §1

[6] = Quantitative High-Throughput drug screen in 47 multiple myeloma cell lines against the NCATS MIPE library collection: KMS20_JCRB cell viability assay (AID 1918973); conditions: CellTiter-Glo ATP, 48 h; at 45.8 µM (top of the series); note: nearly all actives have a fitted effect of over 45% in size
Text: as §2, §3, §4, §5, §6, §7
[1] […]
as §8, §9, §10

[7] = Quantitative High-Throughput drug screen in 47 multiple myeloma cell lines against the NCATS MIPE library collection: KMS26_JCRB cell viability assay (AID 1918975); conditions: KMS26 myeloma cells viability, CellTiter-Glo ATP, 48 h; at 45.8 µM (top of the series); note: nearly all actives have a fitted effect of over 45% in size
Outline: as §1

[8] = Quantitative High-Throughput drug screen in 47 multiple myeloma cell lines against the NCATS MIPE library collection: MMM1_PLB cell viability assay (AID 1918976); conditions: MM.1S-type MMM1 myeloma cells viability, CellTiter-Glo, 48 h; at 45.8 µM (top of the series); note: nearly all actives have a fitted effect of over 35% in size
Outline: (§11)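 500 cells/well; MIPE 4.0 drugs pin-transferred; 48 h, 37C, 5% CO2. CellTiter-Glo, 5 min RT, luminescence. Controls: DMSO 100%, media 0%.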

[9] = Quantitative High-Throughput drug screen in 47 multiple myeloma cell lines against the NCATS MIPE library collection: MOLP8_DSMZ cell viability assay (AID 1918977); conditions: MOLP8 myeloma viability, CellTiter-Glo ATP luminescence, 48 h; at 45.8 µM (top of the series); note: nearly all actives have a fitted effect of over 45% in size
Outline: as §11

[10] = Quantitative High-Throughput drug screen in 47 multiple myeloma cell lines against the NCATS MIPE library collection: NCIH929_DSMZ cell viability assay (AID 1918978); conditions: NCI-H929 myeloma viability, CellTiter-Glo ATP, 48 h; at 45.8 µM (top of the series); note: nearly all actives have a fitted effect of over 35% in size
Text: as §2, §3, §4, §5, §6, §7
[1] […]
as §8, §9, §10

CCOC(=O)C(=O)CBr
inactive: viability (% of DMSO) [1] 64.3% | viability (% of control) [2] 137% | viability, % of DMSO [3] 113% | viability (% of control) [4] 97.5% | viability [5] 94.1% | viability (% of DMSO) [6] 101% | viability (% of DMSO) [7] 120% | viability (% of control) [8] 108% | viability (% of control) [9] 88.9% | viability, % of control [10] 99.3%
